This is an account of results in PMC7479175, “Selection of Potent Inhibitors of Soluble Epoxide Hydrolase for Usage in Veterinary Medicine” (Frontiers in Veterinary Science, 2020).

By UniProt entry, the sequences of proteins in these tests, tags left out. Residues count along the entry.
UniProt A0ABI7ZL20, entry or part of it: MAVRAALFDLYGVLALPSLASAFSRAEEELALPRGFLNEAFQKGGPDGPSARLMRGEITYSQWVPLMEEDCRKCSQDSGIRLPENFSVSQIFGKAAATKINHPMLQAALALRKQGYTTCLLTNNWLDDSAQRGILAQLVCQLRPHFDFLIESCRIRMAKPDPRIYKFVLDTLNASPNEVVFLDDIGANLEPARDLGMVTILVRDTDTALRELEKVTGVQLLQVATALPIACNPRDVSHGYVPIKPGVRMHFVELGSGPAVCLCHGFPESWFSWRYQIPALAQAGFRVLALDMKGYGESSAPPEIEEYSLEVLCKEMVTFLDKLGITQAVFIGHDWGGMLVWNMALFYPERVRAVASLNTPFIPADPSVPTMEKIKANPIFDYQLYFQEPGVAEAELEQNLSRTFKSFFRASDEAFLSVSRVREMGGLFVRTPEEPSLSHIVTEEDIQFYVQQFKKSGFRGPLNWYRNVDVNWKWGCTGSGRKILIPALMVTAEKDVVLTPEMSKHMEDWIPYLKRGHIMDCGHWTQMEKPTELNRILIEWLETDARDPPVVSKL
UniProt A0A8I3NJL8, 1-556: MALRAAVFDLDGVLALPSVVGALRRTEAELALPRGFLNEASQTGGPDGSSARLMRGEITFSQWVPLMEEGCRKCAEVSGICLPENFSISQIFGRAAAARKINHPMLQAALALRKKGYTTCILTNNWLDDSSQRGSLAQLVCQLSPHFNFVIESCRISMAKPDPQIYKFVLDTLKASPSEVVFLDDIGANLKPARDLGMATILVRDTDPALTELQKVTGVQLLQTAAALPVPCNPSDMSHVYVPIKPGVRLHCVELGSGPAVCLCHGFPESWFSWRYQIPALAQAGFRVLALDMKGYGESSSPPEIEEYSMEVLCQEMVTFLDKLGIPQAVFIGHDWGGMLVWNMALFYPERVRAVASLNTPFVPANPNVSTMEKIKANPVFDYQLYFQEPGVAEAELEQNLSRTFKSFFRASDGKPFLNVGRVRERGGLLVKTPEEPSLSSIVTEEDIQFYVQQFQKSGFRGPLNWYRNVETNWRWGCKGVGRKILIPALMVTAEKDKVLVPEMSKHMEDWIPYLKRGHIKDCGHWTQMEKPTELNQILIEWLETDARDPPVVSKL
UniProt F7C407, entry or part of it: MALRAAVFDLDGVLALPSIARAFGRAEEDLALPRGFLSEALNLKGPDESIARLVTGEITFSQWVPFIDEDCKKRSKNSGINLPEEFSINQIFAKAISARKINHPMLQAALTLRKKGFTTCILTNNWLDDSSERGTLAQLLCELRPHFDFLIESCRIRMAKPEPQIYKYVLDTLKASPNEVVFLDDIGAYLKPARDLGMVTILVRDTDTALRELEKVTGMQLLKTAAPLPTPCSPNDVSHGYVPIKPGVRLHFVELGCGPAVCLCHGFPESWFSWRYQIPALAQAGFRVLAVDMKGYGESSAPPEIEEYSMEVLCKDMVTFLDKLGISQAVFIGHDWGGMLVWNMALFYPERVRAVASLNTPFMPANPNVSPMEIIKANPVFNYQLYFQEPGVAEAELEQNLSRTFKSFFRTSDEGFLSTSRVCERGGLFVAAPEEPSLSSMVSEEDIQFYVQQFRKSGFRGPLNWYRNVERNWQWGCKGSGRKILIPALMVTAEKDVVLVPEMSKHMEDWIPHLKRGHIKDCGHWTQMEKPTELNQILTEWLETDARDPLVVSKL
UniProt Q6Q2C2, whole entry: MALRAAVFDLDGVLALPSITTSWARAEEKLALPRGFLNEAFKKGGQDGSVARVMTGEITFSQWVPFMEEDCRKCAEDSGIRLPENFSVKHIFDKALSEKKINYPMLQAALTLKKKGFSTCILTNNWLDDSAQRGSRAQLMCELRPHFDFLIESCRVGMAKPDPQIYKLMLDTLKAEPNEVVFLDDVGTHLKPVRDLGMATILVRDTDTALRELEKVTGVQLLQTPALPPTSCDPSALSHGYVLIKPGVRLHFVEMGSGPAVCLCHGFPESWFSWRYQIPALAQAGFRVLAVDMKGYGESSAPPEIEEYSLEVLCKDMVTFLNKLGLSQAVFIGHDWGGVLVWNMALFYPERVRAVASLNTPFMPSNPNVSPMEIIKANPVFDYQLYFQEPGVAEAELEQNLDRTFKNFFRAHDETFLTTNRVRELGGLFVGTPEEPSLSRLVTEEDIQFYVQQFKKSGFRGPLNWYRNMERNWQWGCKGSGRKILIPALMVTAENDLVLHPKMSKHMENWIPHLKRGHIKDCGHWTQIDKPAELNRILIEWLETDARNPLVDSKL

Each structure is given as a SMILES string. Where two headings read alike, the source gives them in different places.

Data set [1] has as its target T1, Cat sEH (Felis catus, UniProt A0ABI7ZL20). Kind of data set: Primary screen (end point) of the sEH inhibitor library, PHOME substrate. Conditions: [I] = 100 nM, primary end-point screening. Format: biochemical. The procedure:
(§1) Primary screening of the library was performed with an inhibitor concentration of 100 nM using PHOME as substrate ([22]). […] The plates were then mixed and incubated at 30°C for 5 min. Across each plate, 30 μL of the working substrate solution (270 μL of 5 mM PHOME solution in DMSO diluted with 3,680 μL of buffer) were added quickly to yield [S]final: 50 μM. Each plate was further incubated at room temperature (horse sEH: 60 min; cat sEH: 45 min; dog sEH: 30 min).

In data set [2] the target is T2, Dog sEH (Canis lupus familiaris, UniProt A0A8I3NJL8). The data set is described as above. Format: biochemical. To be noted: [I] = 100 nM, primary end-point screening. As for the experimental part:
as §1

Data set [3] deals with T3, Horse sEH (Equus caballus, UniProt F7C407). The description is as above. Format: biochemical. Conditions: [I] = 100 nM, primary end-point screening. As for the experimental part: as §1
The target in data set [4] is T3, Horse sEH. Kind of data set: Secondary screen (kinetic mode), PHOME substrate. Format: biochemical. To be noted: [I] = 100 nM, secondary kinetic mode screening.
Data set [5] concerns the target T1, Cat sEH. Kind of data set: Secondary screen (kinetic mode), PHOME substrate. Format: biochemical. To be noted: [I] = 100 nM, secondary kinetic mode screening.
In data set [6] the target is T2, Dog sEH. Description: Secondary screen (kinetic mode), PHOME substrate. Format: biochemical. To be noted: [I] = 100 nM, secondary kinetic mode screening.
For data set [7], the target named is T1, Cat sEH. Description: sEH inhibition potency (IC50), fluorescent assay with CMNPC, partially purified enzyme. To be noted: read-out: Cat sEH IC50; CMNPC ([S]final = 5 μM) as substrate; average ± standard deviation (n = 3). Format: biochemical.
A short description of data set [8]: Solubility of inhibitors in different solvents. Format: physicochemical. To be noted: for solubility at 24 h: thermodynamic from solid, 40°C. The procedure:
The un-dissolved compounds were filtered through a 0.22 μm centrifuge filter at 30 or 40°C and the supernatant further diluted 10-fold with methanol. The concentration of t-TUCB in the samples was determined by LC/MS/MS analysis as previously described ([15]).

For data set [9], the target named is T4, sEH activity from liver cytosol of Pig (Sus scrofa, UniProt Q6Q2C2).
T4 construct: The radioactive fluorescent assay was used with the liver crude extracts; from tissue; host or cells: pig liver cytosol (100,000 g supernatant)
Description: sEH inhibition potency (IC50), radioactive assay with [3H]t-DPPO, liver cytosol. Format: biochemical. An excerpt: Fresh liver tissues samples (5–30 g) were collected promptly after death from healthy adult cat, dog and horse euthanized for reasons unrelated to this study, and whose bodies were given to science by the owners in line with federal regulations and protocol approved by the Institutional Animal Care and Use Committee at University of California Davis. Similarly, tissues from the other animals tested herein were collected from healthy animals immediately after being slaughter at the university abattoir. Because no animals were directly used or killed for this study, sample collections were exempted from approval by the Institutional Animal Care and Use Committee of the University of California Davis and Michigan State University. […] The tissues were flash-frozen in liquid nitrogen following removal, and then kept at −80°C until used. After thawing on ice, the samples were homogenized in chilled sodium phosphate buffer (20 mM pH 7.4) containing 5 mM EDTA, 1 mM DTT and 1 mM PMSF (tissue weight:buffer volume ratio 1:4). These homogenates were centrifuged at 100,000 g for 60 min at 4°C. […]
The IC50 values reported herein were determined using either a fluorescent based assay (CMNPC as substrate) for purified enzyme preparations or a radioactive based assay ([^3H]t-DPPO as substrate) for crude enzyme preparations ([20]). […]

The term IC50 denotes the concentration at which inhibition is half-maximal. In general, Solubility refers to how much of the substance goes into solution per volume. Low values mean little dissolved substance, high ones much dissolved substance. In the case of `O=C(Nc1ccc(OC(F)(F)F)cc1)N[C@H]1CC[C@H](Oc2ccc(C(=O)O)cc2)CC1` [1,728, trans-4-{4-[3-(4-trifluoromethoxy-phenyl)-ureido]-cyclohexyloxy}-benzoic acid], the “Cat sEH Inhibition (%) P.” value on Cat sEH [1] was found to be 95%. The “Dog sEH Inhibition (%) P.” value on Dog sEH [2] came out at 90%. For the same compound, the “Horse sEH Inhibition (%) P.” value on Horse sEH [3] was found to be 107%. Also, the “Horse sEH Inhibition (%) S.” value at Horse sEH [4] stood at 89%. Further, the “Cat sEH Inhibition (%) S.” value at Cat sEH [5] was 100%. Further, the “Dog sEH Inhibition (%) S.” value at Dog sEH [6] was 81%. Moreover, at Cat sEH [7], the IC50 is 0.4 ± 0.01 nM. Further, the “Solubility” value came to 222000 µM in data set [8] (PEG300, 30°C) and 0.005 mg/mL in data set [8] (Phosphate Buffer (0.1 M pH 7.4), 30°C). In addition, the solubility at 24 h in data set [8] (aqueous buffer, Phosphate Buffer (0.1 M pH 7.4), read-out: Solubility) stood at 22 µM; in [8] (oil or lipid, Oleic rich oil, read-out: Solubility), 220 µM; in data set [8] (organic solvent or mixture, Carbitol, read-out: Solubility), 114000 µM; in data set [8] (organic solvent or mixture, Carbitol, read-out: Solubility in mg/mL), 50 mg/mL.

For `O=C(O)CCCCCCCCCCCNC(=O)NC12CC3CC(CC(C3)C1)C2` [compound 700], the “Cat sEH Inhibition (%) P.” value at Cat sEH [1] was found to be 94%. Further, on Cat sEH [5], the “Cat sEH Inhibition (%) S.” value is recorded as 99%. For the same compound, in data set [9], the IC50 is 11 nM.
